Where two headings read alike, the source gives them in different places.
Legend:
[1] = test system: HEK293 cells overexpressing 17β-HSD10; assay: LDH cytotoxicity assay; conditions: 50 μM compound, 24 h, n = 3 ± SD
[2] = test system: HEK293 cells overexpressing 17β-HSD10; assay: Alamar Blue cell viability assay; conditions: 50 μM compound, 24 h, n = 3 ± SD
17β-HSD10 [3] = target: T1, 17β-HSD10 (Homo sapiens, UniProt Q99714); assay: (−)-CHANA fluorescence assay of cellular 17β-HSD10 activity; conditions: read-out: cellular 17β-HSD10 activity mean pEC50 (converted)
17β-HSD10 [4] = target: T1, 17β-HSD10; assay: 17β-HSD10 enzyme inhibition dose-response assay (acetoacetyl-CoA/NADH, absorbance 340 nm); format: biochemical; conditions: for mean 17β-HSD10 pIC50: Table 5
[5] = Mouse hepatocyte metabolic stability; parameters: k (elimination constant): unit not given here; conditions: mouse hepatocytes; for Heps category: metabolism category; for Cl (clearance): limits of quantitation 0.5 and 50
[6] = Mouse plasma protein binding
[7] = Table 4, 17β-HSD10 overexpressing HEK293 cells, CHANA fluorescence assay
[8] = Table 5, HEK293 17β-HSD10 cells, CHANA assay

Sequences of proteins named here, by UniProt entry; tags and fusion partners are left off.
UniProt Q99714, whole entry: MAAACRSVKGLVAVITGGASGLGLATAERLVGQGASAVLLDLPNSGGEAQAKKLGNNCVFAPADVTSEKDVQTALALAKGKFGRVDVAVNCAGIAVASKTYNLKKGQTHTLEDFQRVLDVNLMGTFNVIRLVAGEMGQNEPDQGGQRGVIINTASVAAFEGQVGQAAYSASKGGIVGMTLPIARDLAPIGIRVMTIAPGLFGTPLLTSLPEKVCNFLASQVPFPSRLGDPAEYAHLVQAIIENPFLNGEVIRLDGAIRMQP

EC50 (17β-HSD10 [3]; [7])	mean 17β-HSD10 pIC50 (17β-HSD10 [4])	EC50 (17β-HSD10 [3]; [8])	T1/2 (half-life) [5]	k (elimination constant) [5]	Heps category [5]	Cl (clearance) [5]	LipE (17β-HSD10 [4])	mouse PPB (% free) [6]	SMILES	LDH % toxicity (50 μM dose) [1]	Alamar Blue % viability (50 μM dose) [2]
1220 nM	–	–	–	–	–	–	–	–	CC(C)CN(C(=O)c1ccc(Cl)cc1)c1cccc(N(C)Cc2cnc[nH]2)c1	5.08 ± 0.003%	78.96 ± 1.38%
2960 nM	–	–	–	–	–	–	–	–	CC(C)CN(C(=O)c1ccccc1)c1cccc(N(C)Cc2cnc[nH]2)c1	–	96.19 ± 0.82%
860 nM	–	–	–	–	–	–	–	–	Cc1ccsc1C(=O)N1CCC[C@@H]1c1ccccc1-c1ccccc1	4.61 ± 0.03%	81.74 ± 0.92%
713 nM	6.77	713 nM	4.7 min	0.15	high	>50 mL/min/g liver	–	–	Cc1ccsc1C(=O)N1CCC[C@H]1c1ccccc1-c1cccc(Cl)c1 (single isomer, unassigned)	5.84 ± 0.03%	80.48 ± 1.12%
170 nM	6.96	170 nM	–	0.046	high	21.9 mL/min/g liver	2.96	9.9 % free	O=C(c1[nH]ncc1Cl)N1CCC[C@H]1c1ccccc1-c1cccc(O)c1 (single isomer, unassigned)	5.51 ± 0.03%	93.20 ± 0.43%
